# Screening results (PubChem BioAssay)
# IL-2 act: activators of IL-2. AID 652025. IL-2 activation reporter assay, cell-based qHTS; stimulated with anti-CD3/CD4/CD28 beads; in transgenic mouse T cells. actives 0.065% (n = 360,000). activation, % (series mostly up to about 46 µM); in the data active = activation above about 50%; inconclusive = mostly about 30% to 49%; note: 0% is about no effect
#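 Unstimulated transgenic mouse T cells preincubated 60 min with compound, then stimulated with anti-CD3/anti-CD4-coated beads plus anti-CD28 for 18 h at 37 degrees C. IL-2 response read as EGFP and DsRed fluorescence by plate cytometry.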
# miR-21 reporter: raises the signal of a miR-21 reporter; Potency, µM (doses to about 38.3 µM), inactives show top-dose reporter change, positive = more light; HeLa miR-21 FLuc reporter, luciferase, 48 h; AID 2288; 340,000 tested, under 10 active; active = well fitted rising curve with a large enough effect; inconclusive = small, poorly fitted or top-dose-only effect; inactive = no such curve, though single readings can be large or run the other way;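 further: % of control where 0% means no effect; miR-21 action dims this reporter so a rising signal means less miR-21 action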
#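 HeLa cells endogenously expressing miR-21, stably carrying CMV-driven firefly luciferase with a downstream miR-21 binding site, 2000 cells/well. Titrations up to approximately 40 uM, 48 hours; luciferase luminescence read.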
# Nrf2 block: inhibitors of Nrf2 signaling. AID 504444. actives 2.1% (n = 360,000). A549 ARE-Fluc reporter, luciferase luminescence, 18-24 h. Potency, µM (top dose mostly 46 µM), without a hit: at the highest dose activity change, negative = inhibition, usual class: inhibitors; note: potency is the fitted concentration of half-maximal effect; % is set by controls: 0 for no effect and ±100 for the full control effect; nearly all actives have a fitted effect of over 60% in size
#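 Two sequential reads on A549 ARE_Fluc cells exposed to compound for 18-24 h: a CellTiter-Fluor fluorescence read for viability, then a luciferase luminescence read for Nrf2/ARE activity.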
# ClpP mod: qHTS Assay for Activators of ClpP | purified B. subtilis ClpP, FRET peptide cleavage, 20 min | actives 1.9% (n = 340,000) | AID 651965, 2013 | Potency, µM (top dose mostly 57.5 µM), inactives show at the top dose activity change, negative = active; active = well fitted falling curve with a large enough effect; inconclusive = small, poorly fitted or top-dose-only effect; inactive = no such curve, though single readings can be large or run the other way; note: potency is the fitted concentration of half-maximal effect; the source files actives as falling curves though it sought activators and does not explain the sign; nearly all actives have a fitted effect of over 65% in size
#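 Purified B. subtilis ClpP, 10 microg/mL final in Tris/HCl pH8 with KCl, BSA, glycerol and Tween-20, cleaved an Abz/nitrotyrosine-quenched decapeptide. Fluorescence (ex 320, em 430) was read at 0 and 20 min at room temperature. Delta was normalized to 5.8 microM ADEP and DMSO/no-enzyme controls.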
# A549 tox: kills or reduces viability of A549 cells in Nrf2 counter-screen | actives 0.16% (n = 390,000) | Potency, µM (highest dose often 46 µM), for inactives: at the top dose activity change, negative = cytotoxicity, hits mostly inhibitors | A549 ARE-Fluc cells, CellTiter-Fluor viability, 18-24 h | AID 504648; note: potency is the fitted concentration of half-maximal effect; % is set by controls: 0 for no effect and ±100 for the full control effect
#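 Cytotoxicity counterscreen: CellTiter-Fluor fluorescence was measured in A549 ARE_Fluc cells after 18-24 h of compound exposure in a concentration series. The subsequent BugLite luminescent read reports ARE-luciferase activity.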
# Nrf2 ARE act: Nrf2 pathway activation. AREc32 ARE-luciferase reporter (MCF7-derived line), luminescence, 24 h. Potency, µM (top dose mostly 46.1 µM), inactives show at the highest dose activation, usual class: activators. actives 0.31% (n = 410,000); note: potency is the fitted concentration of half-maximal effect; % of control where 0% means no effect; nearly all actives have a fitted effect of over 65% in size
#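 Steps: seed AREc32_Fluc cells (1000/well, 5% FBS OPTI-MEM); incubate overnight at 37 deg C; add 23 nL compound; incubate 24 hr; add Steady-Glo; hold 30 min RT; read luminescence.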
# Starred values were filed as active, the others as inactive; ? = inconclusive; · = no result. Most compounds without a hit are left out; they make up all but 3.7% or so of the library. Unless noted, calls come from the whole dose curve; as a rule, active = well fitted curve in the direction sought with a large enough effect; inconclusive = small, poorly fitted or top-dose-only effect, or another doubt; inactive = no such curve, though single readings can be large; an effect the other way counts as inactive or inconclusive.
SMILES,IL-2 act,miR-21 reporter,Nrf2 block,ClpP mod,A549 tox,Nrf2 ARE act
O=C(O)c1sccc1Oc1ccc(F)cc1[N+](=O)[O-],0,0%,23µM*,-6%,-17%,3%
COc1cccc(OC)c1-c1nn2c(-c3n[nH]c4c3CCC4)nnc2s1,·,·,?,4%,-8%,·
CCOc1cc(-c2ccc(N)c(OCC)c2)ccc1N,1,-3%,23%,32µM*,-6%,3%
COC(=O)C1=C(c2ccc(-c3ccccc3)c(F)c2)C[C@@H]2CC[C@H]1N2C(=O)NCC1CC1,-1,·,13µM*,?,?,-1%
COCCNC(=O)N1[C@H]2CC[C@@H]1C(C(=O)OC)=C(c1ccc(-c3ccccc3)c(F)c1)C2,0,·,18µM*,1%,-3%,5%
COC(=O)C1=C(c2ccc(-c3ccccc3)c(F)c2)C[C@@H]2CC[C@H]1N2C(=O)NCCOc1ccccc1,-4,·,18µM*,-13%,?,-1%
COC(=O)C1=C(c2ccc(-c3ccccc3)c(F)c2)C[C@@H]2CC[C@H]1N2C(=O)NC1Cc2ccccc2C1,-1,·,?,-15%,-19%,4%
O=C(c1cc(-c2cccc(Cl)c2)on1)N1CCOCC1,-4,-89%,?,·,5%,4%
Cn1c(=O)oc2cc(S(=O)(=O)Nc3cccc([N+](=O)[O-])c3)ccc21,-2,-33%,-4%,1%,12%,0%
Cc1c(P(=S)(c2ccccc2)c2ccccc2)[n+]2ccccc2n1C/C=C/c1ccccc1,-1,·,?,·,-18%,-3%
CN(C(=O)CSc1nc2ccc(NC(=O)COc3ccc(Cl)cc3)cc2s1)c1ccccc1,·,?,15µM*,-6%,-18%,2%
COc1cccc(NC(=O)C2CCN(c3nnc(C)c4c(C)n(-c5ccccc5)nc34)CC2)c1,·,14%,·,?,-19%,0%
CCN(CC)CCOC(=O)c1ccc(NC(=O)CCn2c(=O)oc3ccccc32)cc1,·,-3%,2%,-1%,?,0%
COc1cc(OC)cc(-c2sc3ccc(OC)cc3c2-c2ccc(OCCN3CCOCC3)cc2)c1,-1,·,?,8.9µM*,9%,8%
COc1ccc2sc(-c3ccccc3OC)c(-c3ccc(OCCN4CCOCC4)cc3)c2c1,0,·,-7%,28µM*,6%,7%
COc1cccc(-c2sc3ccccc3c2-c2ccc(OCCN3CCOCC3)cc2)c1,0,·,8%,32µM*,-2%,12%
COc1ccc(-n2c(CN3CCOCC3)nc3ccccc3c2=O)c(OC)c1,2,0%,5%,-1%,1%,1%
Cc1cc(-c2nc3ncccc3o2)ccc1NC(=O)c1ccccc1Br,·,-32%,?,-16%,-24%,0%
c1cc2c3c(cccc3c1)CC2,·,·,·,0%,·,·
Cc1cccc2nc(-c3ccccc3)c(-c3ccc(CN4CCC(n5c(=O)[nH]c6ccccc65)CC4)cc3)nc12,0,·,·,25µM*,·,0%
Cc1ccc(Cl)cc1N1CCN(c2ncnc3c2nc2n3CCCC2)CC1,·,1%,?,2%,-6%,-1%
COc1ccc(N2CCN(CCCN)CC2)cc1,-5,·,-6%,-10%,-3%,0%
c1ccc(N2CCN(c3ncnc4c3nc3n4CCCC3)CC2)cc1,·,?,23µM*,-23%,-13%,0%
COc1ccc(N2CCN(c3ncnc4c3nc3n4CCCCC3)CC2)cc1,·,3%,16µM*,-29%,-22%,2%
O=C(CN1CCN(c2ncc(C(F)(F)F)cc2Cl)CC1)N1CCN(c2ncc(C(F)(F)F)cc2Cl)CC1,-4,2%,11µM*,1%,?,0%
SMILES,IL-2 act,miR-21 reporter,Nrf2 block,ClpP mod,A549 tox,Nrf2 ARE act
Cc1cc(OCC(=O)N2CCN(CC(=O)N3CCOCC3)CC2)c(C(C)C)cc1Cl,0,·,-24%,3%,-12%,2%
CCCCn1c(O)c(C(CC)=Nc2ccc(C(=O)O)cc2)c(=O)[nH]c1=O,-2,-14%,2%,2.5µM*,-11%,0%
CCOc1ccc(NCc2cccn2-c2nnc(N3CCC(C(=O)NCc4ccc(C)cc4)CC3)s2)cc1,·,17%,?,-3%,-11%,0%
Cc1ccc(NCc2cccn2-c2nnc(N3CCC(C(=O)NCc4ccc(OC(C)C)cc4)CC3)s2)cc1,·,26%,26µM*,-6%,-15%,0%
CCOc1ccc2nc(N3CCC(C(=O)Nc4ccc(Br)cc4F)CC3)sc2c1,·,-44%,?,0%,2%,-1%
CCOc1ccc(NCc2cccn2-c2nnc(N3CCC(C(=O)NCC(C)c4ccccc4)CC3)s2)cc1 (stereo not given),·,30%,15µM*,-4%,1%,1%
c1ccc2nc3ccccc3nc2c1,1,1%,21µM*,-5%,?,4%
C=Cc1cc(OC)c2c(c1)c(=O)oc1c2cc(OC)c2c(O)ccc(C3OC(C)C(O)C(C)(O)C3O)c21 (stereo not given),-7,·,2.1µM*,-4%,5.2µM*,-2%
Cc1sc2ncnc(SCC(=O)Nc3ccc(S(=O)(=O)N4CCOCC4)cc3)c2c1C,-1,·,?,·,1%,3%
CN(Cc1ccccc1)C(=O)c1ccc(NC(=O)C2CCN(C(=O)OC(C)(C)C)CC2)cc1,-4,·,16µM*,0%,-5%,3%
CCC1CN2CCc3cc(OC)c(OC)cc3C2CC1CC1NCCc2c1[nH]c1ccc(O)cc21 (stereo not given),-3,·,0.52µM*,?,1.2µM*,-2%
CCn1cc2nc(SCc3c(F)cccc3Cl)n(CCc3ccccc3)c(=O)c2n1,·,28%,?,-5%,-24%,-1%
CCn1cc2nc(SCc3cccc(C(F)(F)F)c3)n(Cc3ccc(OC)cc3)c(=O)c2n1,·,12%,23µM*,-7%,-20%,4%

# Record cards, as listed above.
# Listed for COc1cccc(OC)c1-c1nn2c(-c3n[nH]c4c3CCC4)nnc2s1 : IL-2 act = ·; miR-21 reporter = ·; Nrf2 block = ?; ClpP mod = 4%; A549 tox = -8%; Nrf2 ARE act = ·
# Listed for COc1ccc2sc(-c3ccccc3OC)c(-c3ccc(OCCN4CCOCC4)cc3)c2c1 : IL-2 act = 0; miR-21 reporter = ·; Nrf2 block = -7%; ClpP mod = 28µM*; A549 tox = 6%; Nrf2 ARE act = 7%

# By substructure: the entries above with a CF3 group.
SMILES,IL-2 act,miR-21 reporter,Nrf2 block,ClpP mod,A549 tox,Nrf2 ARE act
O=C(CN1CCN(c2ncc(C(F)(F)F)cc2Cl)CC1)N1CCN(c2ncc(C(F)(F)F)cc2Cl)CC1,-4,2%,11µM*,1%,?,0%
CCn1cc2nc(SCc3cccc(C(F)(F)F)c3)n(Cc3ccc(OC)cc3)c(=O)c2n1,·,12%,23µM*,-7%,-20%,4%
